Data taken from PMC12282101, “Heat shock protein 90 chaperone activity is required for hepatitis A virus replication” (Journal of Virology, 2025).

System: Huh-7.5.1 cells
Assay: Cell viability in the chemical screen (Cell TiterGlo)
Details: 10 µM compound, 72 h

Substance: Maraviroc
- Viability Percent DMSO: 163 Percent DMSO
